Assay: in vitro
Settings: PAMPA, pH 7.4

**Q.** With `CCn1cc(C(=O)O)c(=O)c2cc(F)c(N3CCNCC3)cc21` [Norfloxacin, norfloxacin] as the molecule, how does the Papp at 5 h, 200 µM read?
**A.** 0.56 ± 0.1 ×10⁻⁶ cm/s

Reference: article PMC6384991, “5-Arylideneimidazolones with Amine at Position 3 as Potential Antibiotic Adjuvants against Multidrug Resistant Bacteria” (Molecules, 2019)
